Earlier results on one compound are cited in patent US20260174880A1, “ELECTROPHILIC REACTIVE LINKERS FOR LABELING OF POLYPEPTIDES AND METHODS OF USE THEREOF” (The Brigham and Women's Hospital, Inc., priority 2023, published 2026).

Protein sequences, listed by entry. Tags and fused reporters are not part of them.
UniProt P00519, whole entry: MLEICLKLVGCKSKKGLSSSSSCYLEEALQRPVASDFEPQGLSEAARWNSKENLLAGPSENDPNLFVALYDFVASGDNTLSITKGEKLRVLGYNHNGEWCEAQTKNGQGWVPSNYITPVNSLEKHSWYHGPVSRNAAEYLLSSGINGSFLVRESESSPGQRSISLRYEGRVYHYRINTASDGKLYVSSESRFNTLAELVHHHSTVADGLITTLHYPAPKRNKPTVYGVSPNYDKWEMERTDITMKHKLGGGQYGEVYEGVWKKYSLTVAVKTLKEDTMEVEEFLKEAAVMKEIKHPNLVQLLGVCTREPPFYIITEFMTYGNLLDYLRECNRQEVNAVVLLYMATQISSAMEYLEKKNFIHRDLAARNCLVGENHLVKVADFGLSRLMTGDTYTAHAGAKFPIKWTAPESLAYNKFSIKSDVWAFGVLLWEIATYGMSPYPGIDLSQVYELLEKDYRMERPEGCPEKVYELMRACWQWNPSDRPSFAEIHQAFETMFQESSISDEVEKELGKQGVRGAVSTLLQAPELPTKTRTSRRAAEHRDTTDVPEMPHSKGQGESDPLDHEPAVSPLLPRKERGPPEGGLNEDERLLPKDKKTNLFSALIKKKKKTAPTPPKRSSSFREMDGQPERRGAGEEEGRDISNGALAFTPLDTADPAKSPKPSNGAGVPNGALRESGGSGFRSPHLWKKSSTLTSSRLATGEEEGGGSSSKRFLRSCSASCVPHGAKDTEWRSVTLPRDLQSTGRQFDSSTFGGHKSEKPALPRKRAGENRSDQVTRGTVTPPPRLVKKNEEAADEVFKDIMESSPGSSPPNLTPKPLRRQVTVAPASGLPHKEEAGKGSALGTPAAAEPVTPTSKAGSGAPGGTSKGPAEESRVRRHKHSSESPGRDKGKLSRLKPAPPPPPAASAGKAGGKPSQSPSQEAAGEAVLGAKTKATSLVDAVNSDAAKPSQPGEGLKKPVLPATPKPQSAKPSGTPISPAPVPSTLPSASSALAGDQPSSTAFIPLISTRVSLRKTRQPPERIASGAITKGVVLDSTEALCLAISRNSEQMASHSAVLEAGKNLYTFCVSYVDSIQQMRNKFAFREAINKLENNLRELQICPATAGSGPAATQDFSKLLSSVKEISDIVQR

Each structure is given as a SMILES string.

One may read the pIC50 as −log10 of the IC50, conventionally taken in molar units.

This series concerns the target ABL proto-oncogene 1, non-receptor tyrosine kinase (Homo sapiens, UniProt P00519).

In the case of `O=C(NCCO)c1cccc(-c2cc(Nc3ccc(OC(F)(F)F)cc3)ncn2)c1` [GNF-5], the pIC50 was 6.7.
